# Values quoted from earlier work in PubChem BioAssay AID1811 (Shanghai Institute of Organic Chemistry, 2009).
# Some of the results follow. Activity calls are given as the source filed them. Where no limit is named, active and inactive come without a cut-off here.
# System: acetyl-coenzyme a carboxylase
# Experiment: PubChem AID 1811
# Conditions: PDB complex binding affinities from literature
structure (smiles),measurement,value
CO[C@H]1CCCC[C@@H](c2ccccc2)OC(=O)[C@@H](C)[C@@]2(O)O[C@H]([C@@H](C)[C@H](O)[C@H]2OC)[C@@H](C)/C=C/[C@H]1OC,outcome,active
